Consider one compound from US20260159520A1, “HETEROBIFUNCTIONAL COMPOUNDS AND METHODS OF TREATING DISEASE” (Halda Therapeutics OpCo, Inc., priority 2022, published 2026).

Protein sequences, listed by entry. Tags and fused reporters are not part of them.
UniProt P50750, whole entry: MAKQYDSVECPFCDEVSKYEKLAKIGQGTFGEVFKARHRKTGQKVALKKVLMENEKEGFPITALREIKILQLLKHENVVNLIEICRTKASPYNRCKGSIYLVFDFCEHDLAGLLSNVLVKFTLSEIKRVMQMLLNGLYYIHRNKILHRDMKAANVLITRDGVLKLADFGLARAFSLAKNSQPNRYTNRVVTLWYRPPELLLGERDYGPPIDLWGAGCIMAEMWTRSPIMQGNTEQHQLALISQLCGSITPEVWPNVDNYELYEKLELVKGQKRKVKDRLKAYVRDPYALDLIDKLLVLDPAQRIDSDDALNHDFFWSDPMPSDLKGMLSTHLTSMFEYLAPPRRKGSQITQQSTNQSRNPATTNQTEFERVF

Experiment [1] deals with T-Rex 293 cell line SC cells having increased expression of progesterone receptor isoform B protein. Nature of the experiment: Cellular growth inhibition, T-Rex 293 SC cells with doxycycline (increased progesterone receptor isoform B expression). As to conditions: with 10 ng/mL doxycycline (increased progesterone receptor isoform B), 72 hours, CellTiter-Glo 2.0. How it is done:
(§1) The following types of cells were prepared for this experiment: (i) a T-Rex 293 cell line having increased expression of progesterone receptor isoform B protein due to exposure to doxycycline and (ii) a T-Rex 293 cell line lacking increased expression of progesterone receptor isoform B protein. Ability of the test compounds to inhibit proliferation of the foregoing cell types was evaluated according to the procedures set forth below.
(§2) The doxycycline-inducible progesterone receptor isoform B protein expressing cell line was established using the following protocol: T-Rex 293 cells were purchased from Invitrogen (Cat #R71007) and transfected using Lipofectamine 2000 with the wild-type progesterone receptor B protein sequence cloned into the pcDNA4/TO vector. […] Clones were analyzed for expression of progesterone receptor isoform B protein in the presence and absence of 10 ng/mL doxycycline (Sigma Cat #D9891), and a single doxycycline-inducible clone (hereinafter “SC”) was selected for use in downstream assays. […]
(§3) At the end of the treatment duration, cell viability was quantified with CellTiter-Glo 2.0 reagent (Promega Cat #G9243). […] Following incubation, the plates were spun at 3000×g for 30 seconds, then sealed with an optical adhesive cover, and luminescence readings were measured with an EnVision Plate Reader (Perkin Elmer).
(§4) Data was normalized using zero luminescence for baseline. […]

For experiment [2], the target named is CDK9 (Homo sapiens, UniProt P50750). Nature of the experiment: KdELECT binding assay, CDK9. As to conditions: CDK9, Table 7. How it is done:
Compounds were tested using a KdELECT. Kinase-tagged T7 phage strains were prepared in an E. coli host derived from the BL21 strain. E. coli were grown to log-phase and infected with T7 phage and incubated with shaking at 32° C. until lysis. The lysates were centrifuged and filtered to remove cell debris. The remaining kinases were produced in BEK-293 cells and subsequently tagged with DNA for qPCR detection. Streptavidin-coated magnetic beads were treated with biotinylated small molecule ligands for 30 minutes at room temperature to generate affinity resins for kinase assays. The liganded beads were blocked with excess biotin and washed with blocking buffer (SeaBlock (Pierce), 1% BSA, 0.05% Tween 20, 1 mM DTT) to remove unbound ligand and to reduce non-specific binding. Binding reactions were assembled by combining kinases, liganded affinity beads, and test compounds in 1× binding buffer (20% SeaBlock, 0.17×PBS, 0.05% Tween 20, 6 mM DTT). Test compounds were prepared as 111× stocks in 100% DMSO. Kd values were determined using an 11-point 3-fold compound dilution series with three DMSO control points. All compounds for Kd measurements are distributed by acoustic transfer (non-contact dispensing) in 100% DMSO. The compounds were then diluted directly into the assays such that the final concentration of DMSO was 0.9%. […] The kinase concentration in the eluates was measured by qPCR.

The test system of experiment [3] is T-Rex 293 cell line SC3 cells having increased expression of androgen receptor protein. The experiment is described as follows: Cellular growth inhibition, T-Rex 293 SC3 cells with doxycycline (increased androgen receptor expression). As to conditions: with 10 ng/mL doxycycline (increased androgen receptor), 72 hours, CellTiter-Glo 2.0. How it is done:
(§5) The following types of cells were prepared for this experiment: (i) a T-Rex 293 cell line having increased expression of androgen receptor protein due to exposure to doxycycline and (ii) a T-Rex 293 cell line lacking increased expression of androgen receptor protein. Ability of the test compounds to inhibit proliferation of the foregoing cell types was evaluated according to the procedures set forth below.
(§6) The doxycycline-inducible androgen receptor protein expressing cell line was established using the following protocol: T-Rex 293 cells were purchased from Invitrogen (Cat #R71007) and transfected using Lipofectamine 2000 with the wild-type androgen receptor protein sequence cloned into the pcDNA4/TO vector. Transfected cells were selected using 400 μg/mL Zeocin (Invitrogen Cat #R25001). […] Clones were analyzed for expression of androgen receptor protein in the presence and absence of 10 ng/mL doxycycline (Sigma Cat #D9891), and a single doxycycline-inducible clone (hereinafter “SC3”) was selected for use in downstream assays. […]
(§7) At the end of the treatment duration, cell viability was quantified with CellTiter-Glo 2.0 reagent (Promega Cat #G9243). […] Following incubation, the plates were spun at 3000×g for 30 seconds, then sealed with an optical adhesive cover, and luminescence readings were measured with an EnVision Plate Reader.
as §4
For orientation: ATP-based viability assays read luminescence as a measure of living cells.

For experiment [4], the system named is T-Rex 293 cell line SC3 cells lacking increased expression of androgen receptor protein. The experiment is described as follows: Cellular growth inhibition, T-Rex 293 SC3 cells without doxycycline. As to conditions: not exposed to doxycycline, 72 hours, CellTiter-Glo 2.0. How it is done: as §5, §6, §7, §4
For experiment [5], the system named is T47D cells. Nature of the experiment: Cellular growth inhibition assay for T47D cells. As to conditions: 72 hours, CellTiter-Glo 2.0. Here is the method:
(§8) T47D cells were purchased from American Type Cell Culture (ATCC Cat #HTB-133) and then seeded on poly-D-lysine coated, black clear-bottom 384-well plates at 3000/well in 25 μL Dulbecco's Modified Eagle Medium (DMEM) supplemented with 10% w/w Fetal bovine serum (FBS), 0.2 units/mL recombinant human insulin (Gibco Cat #12585014), and 1% w/w Pen-Strep. Pen-Strep is a commercially available mixture of penicillin G and streptomycin, which is used in mammalian cell culture media to prevent bacterial contamination. Dulbecco's Modified Eagle Medium (DMEM) supplemented with 10% w/w fetal bovine serum (FBS), 0.2 units/mL recombinant human insulin, and 1% w/w Pen-Strep is herein referred to as Treatment Medium. Following seeding of cells in the plates, the plates were spun at 300×g for 30 seconds, then equilibrated to room temperature for 30 minutes, and then deposited in a humidified tissue culture incubator maintained at 37° C. with 5% CO2. […]
as §3, §4

The test system of experiment [6] is VCaP cells. The experiment is described as follows: Cellular growth inhibition assay for VCaP cells. As to conditions: 72 hours, CellTiter-Glo 2.0. Here is the method:
as §8, with “VCaP” for “T47D”, “#CRL2876)” for “#HTB-133)”, “5000/well” for “3000/well”, “(FBS)” for “(FBS), 0.2 units/mL recombinant human insulin (Gibco Cat #12585014),”, “(FBS)” for “(FBS), 0.2 units/mL recombinant human insulin,”
At the end of the treatment duration, cell viability was quantified with CellTiter-Glo 2.0 reagent (Promega Cat #G9243). […] Following incubation, the plates were spun at 3000×g for 30 seconds, then sealed with an optical adhesive cover, and luminescence readings were measured with an EnVision Plate Reader. Data was normalized using zero luminescence for baseline. […]

Experiment [7] deals with T-Rex 293 cell line SC cells lacking increased expression of progesterone receptor isoform B protein. Nature of the experiment: Cellular growth inhibition, T-Rex 293 SC cells without doxycycline. As to conditions: not exposed to doxycycline, 72 hours, CellTiter-Glo 2.0. Here is the method:
as §1, §2, §3, §4

A word on the GI50: it is the concentration at which growth is held to half of that of the control. Higher therefore signals lower sensitivity of the cells. Broadly, the Kd is the equilibrium constant for the complex coming apart. A low value points to higher affinity. Take `COc1cc(F)ccc1-c1ccnc2[nH]c(C3CCN(CCOC4CCN(c5ncc(C(=O)N[C@H]6C(C)(C)[C@H](Oc7ccc(C#N)c(Cl)c7)C6(C)C)cn5)CC4)CC3)cc12`: the concentration for 50% growth inhibition (GI50) lay in the range of 500 to 1500 nM in experiment [1]; 100 to 1000 nM in experiment [3]; 1000 to 3500 nM in experiment [4]; 1500 to 3000 nM in experiment [5]; 1000 to 3500 nM in experiment [6]; 500 to 1500 nM in experiment [7]. The compound also returned a dissociation constant Kd in experiment [2] of 50 to 500 nM.
